Kd, koff and kon data for one molecule are collected here from paper PMC5687611 (Oncotarget, 2017).

This test addresses soluble human PD-L1 ([…]) (human). Kind of test: SPR; Biacore T200, biotinylated hPD-1 captured on streptavidin-coated CM5 chip, hPD-L1 and variants injected, single-cycle kinetics, 1:1 binding model, room temperature. The settings on record: both partners purified.

B1: biotinylated hPD-1 (residues 33-150, C93S, with biotin tag) (domain or fragment)
chain: NPPTFSPALLVVTEGDNATFTCSFSNTSESFVLNWYRMSPSNQTDKLAAFPEDRSQPGQDSRFRVTQLPNGRDFHMSVVRARRNDSGTYLCGAISLAPKAQIKESLRAELRVTERRAE
modifications: biotin on the biotin tag (BirA biotin ligase)
A word on the Kd: it is the equilibrium constant for the complex coming apart. Usually koff stands for the rate constant with which the complex falls apart. A word on the kon: it is a measure of how fast the partners come together. A low value points to slow association. As to B1, the equilibrium dissociation constant (Kd) was determined as 17.7 µM, the off-rate constant (koff) was 0.77 s⁻¹ and the kon was 43600 M⁻¹ s⁻¹.
